Active and inactive are the calls of the source. The calls are words filed in the database; no cut-off is given here.
Assays:
B16-F10 = test: Antitumor activity against mouse B16-F10 cells allografted in female C57BL/6 mouse assessed as prolongation of animal survival at 30 mg/kg, iv qd; type: functional, organism-based
[1] = Acute toxicity in female C57BL/6 mouse assessed as change in spleen weight at 10 mg/kg, iv qd treated for 7 days; type: organism-based; details: in vivo, 168 h, time 7 day
[2] = Acute toxicity in female C57BL/6 mouse assessed as change in kidney weight at 10 mg/kg, iv qd treated for 7 days; type: organism-based; details: in vivo, 168 h, time 7 day
[3] = Acute toxicity in female C57BL/6 mouse assessed as change in body weight at 10 mg/kg, iv qd treated for 7 days; type: organism-based; details: in vivo, 168 h, time 7 day
[4] = Acute toxicity in female C57BL/6 mouse assessed as change in heart weight at 10 mg/kg, iv qd treated for 7 days; type: organism-based; details: in vivo, 168 h, time 7 day
[5] = Toxicity in female C57BL/6 mouse assessed as drug tolerance at 10 mg/kg, iv qd treated for 7 days; type: organism-based; details: in vivo, 168 h, time 7 day
[6] = Acute toxicity in female C57BL/6 mouse assessed as change in liver weight at 10 mg/kg, iv qd treated for 7 days; type: organism-based; details: in vivo, 168 h, time 7 day
[7] = Acute toxicity in female C57BL/6 mouse assessed as change in lung weight at 10 mg/kg, iv qd treated for 7 days; type: organism-based; details: in vivo, 168 h, time 7 day
[8] = Toxicity in female C57BL/6 mouse allografted with mouse B16-F10 cells assessed as body weight loss at 5 to 10 mg/kg, iv qd; type: organism-based; details: in vivo, dose 5-10 mg/kg

Row | SMILES | Activity (B16-F10) | Activity [1] | Activity [2] | Activity [3] | Activity [4] | Activity [5] | Activity [6] | Activity [7] | Activity [8]
1 | O=C(Nc1cc(F)c(F)cc1C(=O)O)c1ccc(-n2ccnc2)nn1 | Active |  |  |  |  |  |  |  | 
2 | C#Cc1cc(NC(=O)c2ccc(-n3cnc(F)c3)nn2)c(C(=O)[O-])cc1F.[Li+] |  | Non-toxic | Non-toxic | Non-toxic | Non-toxic | Non-toxic | Non-toxic | Non-toxic | Non-toxic

— ChEMBL document CHEMBL6177999, “Discovery of 3-(Fluoro-imidazolyl)pyridazine Derivatives as Potent STING Agonists with Antitumor Activity” (J Med Chem, 2025)
